The values that follow come from patent EP0604355B1, “Akyl Substituted heterocyclic compounds” (N[…]/S, priority 1992, dated 1994).

Chains of the proteins cited; added tags and fusions are not shown.
UniProt P23977, whole entry: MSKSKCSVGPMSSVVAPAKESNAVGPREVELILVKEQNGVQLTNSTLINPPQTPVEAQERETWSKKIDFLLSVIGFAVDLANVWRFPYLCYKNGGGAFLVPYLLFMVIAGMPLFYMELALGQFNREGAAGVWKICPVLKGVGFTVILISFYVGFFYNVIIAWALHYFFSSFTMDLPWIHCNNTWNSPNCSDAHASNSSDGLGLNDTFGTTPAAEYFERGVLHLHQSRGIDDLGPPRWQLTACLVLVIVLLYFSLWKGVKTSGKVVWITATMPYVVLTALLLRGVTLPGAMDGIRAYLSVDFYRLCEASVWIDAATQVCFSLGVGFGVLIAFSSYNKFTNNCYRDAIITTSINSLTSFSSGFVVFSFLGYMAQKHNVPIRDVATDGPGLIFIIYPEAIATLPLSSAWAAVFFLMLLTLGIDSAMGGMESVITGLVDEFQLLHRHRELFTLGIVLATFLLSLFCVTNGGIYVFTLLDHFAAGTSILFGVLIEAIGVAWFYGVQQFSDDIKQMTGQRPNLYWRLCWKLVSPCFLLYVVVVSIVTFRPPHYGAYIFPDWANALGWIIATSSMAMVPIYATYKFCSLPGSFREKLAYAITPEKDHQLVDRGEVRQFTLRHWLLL

Test [1] relates to haloperidol-induced catalepsy. The experiment in a line: animal or person. As to conditions: Rattus norvegicus, read-out: Minimum effective dose (peroral administration).
For test [2], the target named is reuptake of dopamine in synaptosomes of rat forebrain (Rattus norvegicus, UniProt P23977). Conditions: relative to Win 35,428.

Structures are written as SMILES.

Turning to `CN1[C@H]2CC[C@@H]1[C@H](c1nc(-c3ccccc3)no1)[C@@H](c1ccc(Cl)cc1)C2.Cl` [(1R,2R,3S)-2-(3-Phenyl1,2,4-oxadiazol-5-yl)-3-(4-chlorophenyl)-tropane, hydrochloride], the minimal effective dose in test [1] stood at 0.25 mg/kg.

Regarding `CN1[C@H]2CC[C@@H]1[C@H](c1nc(-c3ccccc3)no1)[C@@H](c1ccc3ccccc3c1)C2.Cl` [(1R,2R,3S)-2-(3-Phenyl-1,2,4-oxadiazol-5-yl)-3-(2-naphthyl)tropane, hydrochloride], the minimal effective dose in test [1] was 0.25 mg/kg.

Consider `Cc1ccc([C@H]2C[C@@H]3CC[C@H]([C@@H]2c2nc(-c4ccccc4)no2)N3C)cc1.Cl` [(1R,2R,3S)-2-(3-Phenyl-1,2,4-oxadiazol-5-yl)-3-(4-methylphenyl)-tropane, hydrochloride], for which, in test [1], the minimal effective dose came out at 1 mg/kg.

On to `COC(=O)[C@@H]1[C@@H](c2ccc(F)cc2)C[C@@H]2CC[C@H]1N2C` [trans isomer of Win 35,428, (1R,2R,3S)-2-carbomethoxy-3-(4-fluorophenyl)tropane], for which, in test [2], the “times less potent as compared to the cis isomer (Win 35,428) as a dopamine reuptake inhibitor” value is on record as about 50 times.
